Positions count from the first letter of the chain named.
How the values were obtained:
[1] = target: T1, membrane CD24 on hepatoma cells (Huh-7, BEL-7402) (Homo sapiens, UniProt P25063); experiment: cell-based or functional assay
T1 chain: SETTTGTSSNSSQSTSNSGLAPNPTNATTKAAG

CD24-GST = target: T2, CD24-GST (Homo sapiens, UniProt P25063); experiment: SPR; Biacore X100; CD24-GST flowed over immobilized antibody; 1:1 binding model; procedure as in ref. 45; conditions: both partners purified
T2 construct: cluster of differentiation 24 (CD24) fused to GST; also called GST-CD24
T2 chain: T1 chain

[2] = target: T1, membrane CD24 on hepatoma cells (Huh-7, …); experiment: flow cytometry on cells; antibody on Huh-7 and BEL-7402 hepatoma cells, also after RNA interference against CD24; procedure as in ref. 12; conditions: one partner purified

B1: hG7-BM3 (hVH-B2, hVL-B1) (antibody, V domains shown)
VH: QVQLVESGGGVVQPGRSLRLSCAASGFTFSRYWMSWVRQAPGKGLEWIAEINPDSSTINYTPSLRDKFTISRDNSKNTLYLQMSSLRAEDTAVYYCARQGDYWGQGTLVTVSS
VL: DIVMTQTPLSLSVTPGQPASISCKSSQSLLHSDGKTYLNWYLQKPGQSPQRLIYLVSKLDSGVPDRFSGSGSGTDFTLKISRVEAEDVGVYYCWQGAHFPYTFGQGTKLEIK
ADCC: lysis of BEL-7402 cells by NK92-FcR cells, E/T ratio 10:1, 100 μg/mL hG7-BM3 (LDH release) [1]: 40.7%
ADCC: lysis of Huh-7 cells by NK92-FcR cells, E/T ratio 10:1, 100 μg/mL hG7-BM3 (LDH release) [1]: 42.2%
tumor/normal tissue ratio at 4 h, near-infrared imaging of IRB-hG7-BM3 in Huh-7-bearing nude mice (1.14 in the group blocked with free hG7-BM3) [1]: 2.5
koff (CD24-GST): 0.000455 s⁻¹
kon (CD24-GST): 799000 M⁻¹ s⁻¹
binding rate to BEL-7402 cells [2]: 69.1%
binding rate to Huh-7 cells [2]: 77.9%

B2: hG7-BM1 (hVH-B1, hVL-B1) (antibody, V domains shown)
VH: B1 VH with K67R
VL: B1 VL
binding rate to BEL-7402 cells [2]: 54.5%
binding rate to Huh-7 cells [2]: 58.2%

— article PMC5584245 (Oncotarget, 2017)
